ChEMBL document CHEMBL1687923, “Discovery of N-hydroxyindole-based inhibitors of human lactate dehydrogenase isoform A (LDH-A) as starvation agents against cancer cells” (J Med Chem, 2011)

Target: L-lactate dehydrogenase A chain (Homo sapiens, UniProt P00338)
Assay: Inhibition of human LDH-A using pyruvate as substrate and NADH as cofactor at 125 uM after 5 mins by calorimetric assay relative to control

Work on NC(=O)C(=O)O [OXAMATE] yielded a Ki of 138 µM.
